# Measurements as given in publication PMC3818563, “Effect of Iboga Alkaloids on µ-Opioid Receptor-Coupled G Protein Activation” (PLoS ONE, 2013).
# The chains behind the UniProt entries cited, without tags or fusion partners.
# UniProt P33535, whole entry: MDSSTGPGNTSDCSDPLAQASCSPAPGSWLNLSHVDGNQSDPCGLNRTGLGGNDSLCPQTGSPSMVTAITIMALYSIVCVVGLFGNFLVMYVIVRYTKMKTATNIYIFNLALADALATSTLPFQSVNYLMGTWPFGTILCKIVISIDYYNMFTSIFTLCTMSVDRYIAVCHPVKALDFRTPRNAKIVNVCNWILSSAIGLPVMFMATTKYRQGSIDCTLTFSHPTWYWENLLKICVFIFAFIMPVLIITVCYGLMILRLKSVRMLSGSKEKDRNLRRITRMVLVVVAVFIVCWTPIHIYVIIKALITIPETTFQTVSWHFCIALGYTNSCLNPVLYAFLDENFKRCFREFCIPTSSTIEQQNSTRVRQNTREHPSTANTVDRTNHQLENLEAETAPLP
# UniProt P42866, whole entry: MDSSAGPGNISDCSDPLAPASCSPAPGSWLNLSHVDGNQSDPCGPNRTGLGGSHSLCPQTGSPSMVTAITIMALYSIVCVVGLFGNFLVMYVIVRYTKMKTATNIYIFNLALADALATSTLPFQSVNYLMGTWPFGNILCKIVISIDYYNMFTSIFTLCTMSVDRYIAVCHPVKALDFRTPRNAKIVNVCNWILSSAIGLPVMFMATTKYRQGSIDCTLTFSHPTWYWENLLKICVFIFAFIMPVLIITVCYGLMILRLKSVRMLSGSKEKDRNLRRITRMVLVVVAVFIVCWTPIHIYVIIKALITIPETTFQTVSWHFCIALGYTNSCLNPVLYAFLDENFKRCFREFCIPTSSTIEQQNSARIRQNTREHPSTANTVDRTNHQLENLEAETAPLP
# Columns and labels:
# [1] = target: T1, μ-opioid receptor (MOR) (Rattus norvegicus, UniProt P33535); assay: [35S]GTPγS binding in Sprague-Dawley / Fischer 344 rat thalamic membranes (Janowsky lab); format: biochemical; design: from tissue; host or cells: rat thalamus membranes (Sprague-Dawley; also Fischer F344 in the Janowsky lab); conditions: n=2, error = range, N/A = no agonist activity detected
# [2] = target: T2, rat rMOR (Rattus norvegicus, UniProt P33535); assay: [35S]GTPγS binding in rMOR-expressing CHO cells (Janowsky lab); format: biochemical; conditions: n=6, N/A = no agonist activity detected
# T2 construct: expressed in transfected cells
# [3] = target: T1, μ-opioid receptor (MOR); assay: [35S]GTPγS binding in Sprague-Dawley rat thalamic membranes (Reith lab); format: biochemical; design: from tissue; host or cells: rat thalamus membranes (Sprague-Dawley; also Fischer F344 in the Janowsky lab)
# [4] = target: T1, μ-opioid receptor (MOR); design: method as in PMID 9592058; conditions: rat thalamic membranes; read-out: EC50 for stimulating [35S]GTPγS binding; cited from earlier work
# [5] = target: T1, μ-opioid receptor (MOR); assay: [35S]GTPγS binding in Sprague-Dawley rat thalamic membranes (Childers lab); format: biochemical; design: from tissue; host or cells: rat thalamus membranes (Sprague-Dawley; also Fischer F344 in the Janowsky lab); conditions: read-out: Agonist activity EC50, N/A = no agonist activity detected
# [6] = target: T3, mouse mMOR (Mus musculus, UniProt P42866); assay: [35S]GTPγS binding in mMOR-expressing HEK 293 cells (Reith lab); format: biochemical
# T3 construct: expressed in transfected cells
# [7] = Solubility of stocks in water
Compound,EC50 [1] [nM],EC50 [2] [nM],EC50 [3] [nM],EC50 [4] [nM],EC50 [5] [nM],effect on thalamic [35S]GTPγS binding relative to baseline [3],Agonist activity Emax (%) [6],IC50 ([6]; read-out: IC50 for reduction of DAMGO stimulation) [nM],maximal concentration in water stocks without drug coming out of solution [7] [mM]
"C[C@@H](NC(=O)[C@@H](N)Cc1ccc(O)cc1)C(=O)NCC(=O)N(C)[C@@H](Cc1ccccc1)C(=O)NCCO [DAMGO, [D-Ala^2, N-MePhe^4, Gly-ol]-enkephalin, reference compound]",122 ± 59,34 ± 4,238 ± 24,7.1,210 ± 330,,,,
Ibogaine HCl,,,,,,reduced thalamic [^35S]GTPγS binding below baseline,no stimulation,17000 ± 4000,≥ 1

# Read-outs that look alike come from different tables or passages of the source.
